Test results as given in patent publication US20060079453A1, “Hla binding peptides and their uses” (priority 2002, published 2006).
Where two headings read alike, the source gives them in different places.

What was measured:
Assay in all cases: biochemical
Format in all cases: binding
[1] = biological target: HLA-B*4002 (Homo sapiens, UniProt P01889, A65T/A93T/A95T/D138N/D201E/D98Y/E176V/E204Q/E69K/K202T/N87E/Q56L/Q94N/R180L/S48T/Y33H/Y91S)
[2] = biological target: HLA-B*4402 (Homo sapiens, UniProt P01889, A223V/A65T/A93T/A95T/D201E/D98Y/E176V/E187L/E204Q/E69K/G107R/H137Y/K202T/L105A/L119I/N104T/N87E/Q56L/Q94N/R106L/R155S/R180D/S101N/S121R/S35A/S48T/T118I/V36M/W191S/Y140D/Y91S)
[3] = biological target: HLA-B*4001 (Homo sapiens, UniProt P01889, A65T/A93T/A95T/D138N/D98Y/E176V/E69K/N87E/Q56L/Q94N/R180L/S121R/S35A/S48T/T167S/V36M/W171L/Y33H/Y91S)

Compound | IC50 ([3]; B*4001) [µM] | further results
CC(C)C[C@H](NC(=O)[C@H](CC(N)=O)NC(=O)[C@H](CCC(=O)O)NC(=O)[C@H](C)N)C(=O)N[C@@H](Cc1c[nH]c2ccccc12)C(=O)N[C@H](C(=O)N[C@H](C(=O)N1CCC[C@H]1C(=O)N[C@@H](Cc1ccc(O)cc1)C(=O)O)[C@@H](C)O)C(C)C |  | IC50 [1]: 0.189 µM
CC(C)C[C@H](NC(=O)[C@H](CC(N)=O)NC(=O)[C@H](CCC(=O)O)NC(=O)[C@H](C)N)C(=O)N[C@@H](Cc1c[nH]c2ccccc12)C(=O)N[C@H](C(=O)N[C@H](C(=O)N[C@H](C(=O)N[C@@H](CC(N)=O)C(=O)O)C(C)C)[C@@H](C)O)C(C)C |  | IC50 [1]: 0.481 µM
CC(C)C[C@H](NC(=O)CNC(=O)[C@H](CC(C)C)NC(=O)[C@H](Cc1ccc(O)cc1)NC(=O)[C@H](CCC(=O)O)NC(=O)[C@@H]1CCCN1C(=O)[C@H](CC(N)=O)NC(=O)[C@H](CCC(=O)O)NC(=O)[C@H](C)N)C(=O)O | 0.081 | IC50 ([2]; B*4402): 0.044 µM
CC(C)[C@H](NC(=O)CNC(=O)[C@H](CCC(=O)O)NC(=O)[C@H](C)NC(=O)[C@H](C)NC(=O)[C@@H]1CCCN1C(=O)[C@H](CCC(=O)O)NC(=O)[C@H](C)N)C(=O)NCC(=O)N[C@@H](C)C(=O)O |  | IC50 [1]: 1.66 µM
CSCC[C@H](NC(=O)[C@H](CCCNC(=N)N)NC(=O)[C@@H]1CCCN1C(=O)[C@H](C)NC(=O)[C@H](CCC(=O)O)NC(=O)[C@@H](N)CC(=O)O)C(=O)N1CCC[C@H]1C(=O)N[C@@H](CCC(=O)O)C(=O)N[C@@H](C)C(=O)O | 9.09 | 
CSCC[C@H](NC(=O)[C@H](CCCNC(=N)N)NC(=O)[C@@H]1CCCN1C(=O)CNC(=O)[C@H](CCC(=O)O)NC(=O)[C@H](CCC(=O)O)NC(=O)[C@@H](N)CCC(=O)O)C(=O)N[C@@H](Cc1ccccc1)C(=O)O |  | IC50 ([1]; B*4002): 32.1 µM
CC[C@H](C)[C@H](NC(=O)[C@H](CCCCN)NC(=O)[C@H](CCC(=O)O)NC(=O)[C@@H](N)CCC(=O)O)C(=O)N[C@@H](Cc1c[nH]c2ccccc12)C(=O)N[C@@H](CCC(=O)O)C(=O)N[C@@H](CCC(=O)O)C(=O)N[C@@H](CC(C)C)C(=O)N[C@@H](CO)C(=O)N[C@@H](CCSC)C(=O)N[C@@H](CC(C)C)C(=O)O |  | IC50 ([1]; B*4002): 20.6 µM
CC[C@H](C)[C@H](NC(=O)[C@H](CCCCN)NC(=O)[C@H](CCC(=O)O)NC(=O)[C@@H](N)CCC(=O)O)C(=O)N[C@@H](Cc1c[nH]c2ccccc12)C(=O)N[C@@H](CCC(=O)O)C(=O)N[C@@H](CCC(=O)O)C(=O)N[C@@H](CC(C)C)C(=O)N[C@@H](CO)C(=O)N[C@H](C(=O)N[C@@H](CC(C)C)C(=O)O)C(C)C | 0.152 | 
CSCC[C@H](NC(=O)[C@H](CO)NC(=O)[C@H](CC(C)C)NC(=O)[C@H](CCC(=O)O)NC(=O)[C@@H](N)CCC(=O)O)C(=O)N[C@@H](CC(C)C)C(=O)N[C@@H](CCC(=O)O)C(=O)N[C@H](C(=O)N[C@@H](Cc1ccccc1)C(=O)N[C@@H](CCC(=O)O)C(=O)NCC(=O)O)C(C)C | 24.1 | 
CC(C)C[C@H](NC(=O)[C@H](CCC(=O)O)NC(=O)[C@@H](N)CCC(=O)O)C(=O)N[C@@H](CO)C(=O)N[C@H](C(=O)N[C@@H](CC(C)C)C(=O)N[C@@H](CCC(=O)O)C(=O)N[C@H](C(=O)N[C@@H](Cc1ccccc1)C(=O)O)C(C)C)C(C)C | 10.2 | IC50 ([2]; B*4402): 0.061 µM
CC(C)C[C@H](NC(=O)[C@H](CCC(=O)O)NC(=O)CN)C(=O)N[C@@H](CO)C(=O)N[C@@H](Cc1ccc(O)cc1)C(=O)N[C@@H](CC(C)C)C(=O)N[C@@H](CC(N)=O)C(=O)N[C@H](C(=O)O)C(C)C | 4.86 | 
CC[C@H](C)[C@H](NC(=O)[C@@H]1CCCN1C(=O)[C@@H]1CCCN1C(=O)[C@H](CCC(N)=O)NC(=O)[C@@H]1CCCN1C(=O)[C@H](CC(C)C)NC(=O)[C@H](CCCNC(=N)N)NC(=O)[C@H](CCC(=O)O)NC(=O)CN)C(=O)N[C@@H](CS)C(=O)N[C@H](C(=O)O)[C@@H](C)O | 24.3 | 
CC[C@H](C)[C@H](NC(=O)[C@H](CCC(=O)O)NC(=O)[C@@H](N)CCCCN)C(=O)N[C@@H](CC(C)C)C(=O)N[C@@H](CC(=O)O)C(=O)N[C@@H](CCC(=O)O)C(=O)N[C@@H](C)C(=O)N[C@@H](Cc1ccc(O)cc1)C(=O)N[C@H](C(=O)O)C(C)C |  | IC50 ([1]; B*4002): 0.146 µM
CC[C@H](C)[C@H](NC(=O)[C@H](CO)NC(=O)[C@H](CCC(=O)O)NC(=O)[C@@H](N)CC(C)C)C(=O)N[C@@H](CC(C)C)C(=O)N[C@@H](CCCNC(=N)N)C(=O)N[C@@H](CCCNC(=N)N)C(=O)N[C@@H](CCCNC(=N)N)C(=O)N[C@@H](Cc1ccccc1)C(=O)O | > 11.9 | IC50 ([2]; B*4402): 0.0047 µM
CSCC[C@H](N)C(=O)N[C@@H](CCC(=O)O)C(=O)N[C@@H](Cc1c[nH]cn1)C(=O)N[C@@H](CC(C)C)C(=O)N[C@@H](CCCNC(=N)N)C(=O)N[C@@H](CCC(=O)O)C(=O)N[C@H](C(=O)N[C@@H](CCCNC(=N)N)C(=O)N[C@@H](C)C(=O)O)C(C)C | 44.8 | 
CSCC[C@H](N)C(=O)N[C@@H](CCC(=O)O)C(=O)N[C@@H](Cc1c[nH]cn1)C(=O)N[C@@H](CC(C)C)C(=O)N[C@@H](CCCNC(=N)N)C(=O)N[C@@H](CCC(=O)O)C(=O)N[C@H](C(=O)N[C@@H](CCCNC(=N)N)C(=O)N[C@@H](C)C(=O)N[C@H](C(=O)O)C(C)C)C(C)C | 20.7 | 

Compound | IC50 ([3]; B*4001) [µM] | further results
CSCC[C@H](N)C(=O)N[C@@H](CCC(=O)O)C(=O)N[C@@H](Cc1c[nH]cn1)C(=O)N[C@@H](CC(C)C)C(=O)N[C@@H](CCCNC(=N)N)C(=O)N[C@@H](CCC(=O)O)C(=O)N[C@H](C(=O)N[C@@H](CCCNC(=N)N)C(=O)N[C@@H](C)C(=O)N[C@H](C(=O)N[C@H](C(=O)O)[C@@H](C)O)C(C)C)C(C)C | 3.61 | 
CC(C)C[C@H](NC(=O)[C@H](C)NC(=O)[C@H](CCC(=O)O)NC(=O)[C@@H](N)CC(N)=O)C(=O)N[C@@H](CCC(=O)O)C(=O)N[C@@H](CC(C)C)C(=O)N[C@@H](CCCCN)C(=O)N[C@@H](CC(=O)O)C(=O)N[C@@H](C)C(=O)O |  | IC50 ([1]; B*4002): 27.6 µM
CC(C)C[C@H](NC(=O)[C@H](CCC(=O)O)NC(=O)[C@@H](N)CC(N)=O)C(=O)N[C@@H](CO)C(=O)N[C@H](C(=O)N[C@@H](CC(=O)O)C(=O)N[C@@H](Cc1c[nH]cn1)C(=O)N[C@@H](CO)C(=O)N[C@@H](CC(=O)O)C(=O)N1CCC[C@H]1C(=O)N[C@H](C(=O)O)C(C)C)C(C)C | 2.55 | 
CC(C)C[C@H](NC(=O)[C@H](Cc1ccc(O)cc1)NC(=O)[C@H](CCC(=O)O)NC(=O)[C@@H]1CCCN1)C(=O)N[C@H](C(=O)N1CCC[C@H]1C(=O)N[C@@H](CCC(N)=O)C(=O)NCC(=O)NCC(=O)N[C@@H](C)C(=O)N[C@@H](C)C(=O)O)[C@@H](C)O | 41 | IC50 ([2]; B*4402): > 17.8 µM
C[C@H](NC(=O)[C@H](C)NC(=O)[C@H](CCC(=O)O)NC(=O)[C@@H](N)CCC(N)=O)C(=O)N[C@@H](CO)C(=O)N[C@@H](CO)C(=O)N[C@@H](CO)C(=O)N[C@@H](CO)C(=O)N[C@H](C(=O)O)[C@@H](C)O | 23.5 | IC50 ([2]; B*4402): 9.59 µM
CSCC[C@H](NC(=O)[C@H](CCCNC(=N)N)NC(=O)[C@@H]1CCCN1C(=O)CNC(=O)[C@H](CCC(=O)O)NC(=O)[C@H](CCC(=O)O)NC(=O)[C@H](CCC(=O)O)NC(=O)[C@@H](N)CCC(N)=O)C(=O)N[C@@H](Cc1ccccc1)C(=O)O | 0.918 | 
CC(C)[C@H](NC(=O)[C@H](CCC(=O)O)NC(=O)[C@@H](N)CCC(N)=O)C(=O)N[C@H](C(=O)N[C@@H](C)C(=O)N[C@@H](CCC(=O)O)C(=O)N[C@@H](CC(=O)O)C(=O)NCC(=O)N[C@H](C(=O)O)[C@@H](C)O)[C@@H](C)O | 31.1 | 
CSCC[C@H](NC(=O)[C@H](CCCNC(=N)N)NC(=O)[C@H](CO)NC(=O)[C@H](Cc1ccccc1)NC(=O)[C@H](CCC(=O)O)NC(=O)[C@H](CO)NC(=O)[C@@H](NC(=O)[C@H](CC(C)C)NC(=O)[C@H](CCC(=O)O)NC(=O)[C@@H](N)CCCNC(=N)N)C(C)C)C(=O)N[C@@H](C)C(=O)O | 0.389 | 
CSCC[C@H](NC(=O)[C@H](CCC(=O)O)NC(=O)[C@H](C)NC(=O)[C@H](CCCCN)NC(=O)[C@@H](NC(=O)[C@@H](NC(=O)[C@@H]1CCCN1C(=O)[C@H](CCC(=O)O)NC(=O)[C@@H](N)CCCNC(=N)N)C(C)C)[C@@H](C)O)C(=O)O | 0.373 | 
CC(C)C[C@H](NC(=O)[C@@H](NC(=O)[C@H](CCCCN)NC(=O)[C@@H](NC(=O)[C@H](CCCCN)NC(=O)[C@H](CCCNC(=N)N)NC(=O)[C@H](CC(C)C)NC(=O)[C@H](CCC(=O)O)NC(=O)[C@@H](N)[C@@H](C)O)C(C)C)C(C)C)C(=O)O |  | IC50 ([1]; B*4002): 0.054 µM
CC(C)C[C@H](NC(=O)[C@H](CCC(=O)O)NC(=O)[C@@H](N)[C@@H](C)O)C(=O)N[C@@H](CCCNC(=N)N)C(=O)N[C@@H](CCCCN)C(=O)N[C@H](C(=O)N[C@@H](CCCCN)C(=O)N[C@H](C(=O)N[C@@H](CC(C)C)C(=O)NCC(=O)O)C(C)C)C(C)C | 20.3 | 
CC(C)C[C@H](NC(=O)[C@@H](NC(=O)[C@@H](NC(=O)[C@H](CCC(=O)O)NC(=O)[C@@H](N)C(C)C)C(C)C)[C@@H](C)O)C(=O)NCC(=O)N[C@@H](CCC(=O)O)C(=O)N[C@H](C(=O)N1CCC[C@H]1C(=O)N[C@@H](C)C(=O)N[C@@H](C)C(=O)O)C(C)C | 25.2 | IC50 ([2]; B*4402): > 23.5 µM
CC[C@H](C)[C@H](NC(=O)CNC(=O)[C@H](CS)NC(=O)[C@H](CCC(=O)O)NC(=O)[C@@H](N)Cc1ccc(O)cc1)C(=O)N[C@@H](CCC(N)=O)C(=O)N[C@@H](CC(N)=O)C(=O)N[C@@H](CCC(=O)O)C(=O)N[C@@H](CC(C)C)C(=O)N[C@@H](CO)C(=O)N[C@H](C(=O)O)C(C)C | 0.033 | 
CC(C)C[C@H](NC(=O)[C@H](Cc1ccccc1)NC(=O)[C@H](CCC(=O)O)NC(=O)[C@@H](N)Cc1ccc(O)cc1)C(=O)N[C@@H](Cc1c[nH]c2ccccc12)C(=O)NCC(=O)N1CCC[C@H]1C(=O)N[C@@H](CCCNC(=N)N)C(=O)N[C@@H](C)C(=O)O | 0.249 | IC50 ([2]; B*4402): 2.35 µM
HEQCAAGCT |  | IC50 ([2]; read-out: B*4402): 19 µM; IC50 ([3]; read-out: B*4001): 42.2 µM
